{"source": "patent US12370241B2", "about": "“Nasal powder formulation for treatment of hypoglycemia” (AMPHASTAR PHARMACEUTICALS, INC., priority 2015, dated 2025)", "origin": "cited, not measured here", "settings": "water; cited from earlier work", "data": [{"substance": "γ (gamma)-cyclodextrin", "values": [{"measurement": "Aqueous solubility", "result": "freely soluble in water"}]}]}
